In patent US20250313563A1, “GLYCOGEN SYNTHASE KINASE 3 INHIBITORS AND USES THEREOF” (The Broad Institute, Inc., priority 2022, published 2025):
Like-named read-outs stand apart in the source and are kept apart here.

Protein sequences, listed by entry. Tags and fused reporters are not part of them.
UniProt P49840, whole entry: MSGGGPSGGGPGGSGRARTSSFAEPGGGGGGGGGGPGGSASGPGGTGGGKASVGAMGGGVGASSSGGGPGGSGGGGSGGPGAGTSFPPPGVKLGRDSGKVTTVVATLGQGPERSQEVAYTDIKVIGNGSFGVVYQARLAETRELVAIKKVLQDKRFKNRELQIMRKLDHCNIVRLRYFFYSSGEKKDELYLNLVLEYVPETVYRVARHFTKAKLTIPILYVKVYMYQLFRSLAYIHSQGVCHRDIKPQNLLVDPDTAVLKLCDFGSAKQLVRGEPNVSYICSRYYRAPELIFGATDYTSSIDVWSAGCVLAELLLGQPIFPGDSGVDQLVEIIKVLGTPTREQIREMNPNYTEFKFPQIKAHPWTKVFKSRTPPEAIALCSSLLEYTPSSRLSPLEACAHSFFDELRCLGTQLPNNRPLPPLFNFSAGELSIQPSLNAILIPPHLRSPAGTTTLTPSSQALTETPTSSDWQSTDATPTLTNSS
UniProt P49841, whole entry: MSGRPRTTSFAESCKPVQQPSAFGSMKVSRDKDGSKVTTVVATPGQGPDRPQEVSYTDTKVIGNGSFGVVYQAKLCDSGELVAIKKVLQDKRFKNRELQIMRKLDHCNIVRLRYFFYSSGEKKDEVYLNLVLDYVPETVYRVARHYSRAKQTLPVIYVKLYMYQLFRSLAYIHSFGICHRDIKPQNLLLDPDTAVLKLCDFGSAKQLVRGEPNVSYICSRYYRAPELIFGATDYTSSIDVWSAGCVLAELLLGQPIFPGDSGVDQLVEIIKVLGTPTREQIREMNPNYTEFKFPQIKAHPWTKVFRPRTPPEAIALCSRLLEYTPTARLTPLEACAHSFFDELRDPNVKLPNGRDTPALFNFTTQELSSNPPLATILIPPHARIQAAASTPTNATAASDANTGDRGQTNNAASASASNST

Columns and labels:
[1] = target: GSK3α (GST-full length GSK3α) (Homo sapiens (Human), UniProt P49840); experiment: GSK3α TR-FRET kinase assay; type: biochemical
[2] = target: GSK3b (GST-full length GSK3b) (Homo sapiens (Human), UniProt P49841); experiment: GSK3b TR-FRET kinase assay; type: biochemical
[3] = read-out: GSK3-A TR-FRET BIOCHEMICAL (TR-FRET), IC50, 1 nM GSK3α, 4 μM ATP, 30 minute preincubation (Table 16)
[4] = read-out: GSK3-B TR-FRET BIOCHEMICAL (TR-FRET), IC50, 1 nM GSK3b, 2 μM ATP, 30 minute preincubation (Table 16)
[5] = read-out: GSK3-A TR-FRET BIOCHEMICAL (TR-FRET);, 1 nM GSK3α, 4 μM ATP, 30 minute preincubation, Table 16
[6] = read-out: GSK3-B TR-FRET BIOCHEMICAL (TR-FRET);, 1 nM GSK3b, 2 μM ATP, 30 minute preincubation, Table 16
[7] = read-out: GSK3-A (TR-FRET 1 mM ATP), GMean, IC50, 1 mM ATP, geometric mean
[8] = read-out: GSK3-A TR-FRET BIOCHEMICAL (TR-FRET), GMean, IC50, 1 nM GSK3α, 4 μM ATP, 30 minute preincubation, geometric mean
[9] = read-out: GSK3-B (TR-FRET 1 mM ATP), GMean, IC50, 1 mM ATP, geometric mean
[10] = read-out: GSK3-B TR-FRET BIOCHEMICAL (TR-FRET), GMean, IC50, 1 nM GSK3b, 2 μM ATP, 30 minute preincubation, geometric mean
[11] = read-out: GSK3-A TR-FRET BIOCHEMICAL (TR-FRET), IC50, 1 nM GSK3α, 4 μM ATP, 30 minute preincubation
[12] = read-out: GSK3-B TR-FRET BIOCHEMICAL (TR-FRET), IC50, 1 nM GSK3b, 2 μM ATP, 30 minute preincubation

CC[C@@]1(c2cccc(N3C[C@H](C)[C@@H](C)C3)c2)C2=C(CC(C)(C)CC2=O)Nc2n[nH]cc21
IC50 [1, 3]: 100 to 1000 nM
IC50 [2, 4]: 1000 to 5000 nM

CCC1(c2cccc(-c3cc(OC)ncn3)c2)C2=C(CC(C)(C)CC2=O)Nc2n[nH]cc21 (stereo not shown)
IC50 [1, 5]: < 100 nM
IC50 [2, 6]: 100 to 1000 nM

CCC1(c2cccc(C(F)(F)F)c2)C2=C(Nc3n[nH]cc31)C(C)N(Cc1ccccc1)C2=O (stereo not shown)
IC50 [1, 5]: < 100 nM
IC50 [2, 6]: 100 to 1000 nM

CC[C@]1(c2cccc(Br)c2)C2=C(CC(C)(C)CC2=O)Nc2n[nH]c(C(F)(F)F)c21
IC50 [1, 7]: < 100 nM
IC50 [1, 8]: < 100 nM
IC50 [2, 9]: 100 to 1000 nM
IC50 [2, 10]: < 100 nM

CC[C@]1(c2cccc(-c3c4c(nn3C)CCCC4)c2)C2=C(CC(C)(C)NC2=O)Nc2n[nH]cc21
IC50 [1, 8]: 100 to 1000 nM
IC50 [2, 10]: > 5000 nM

CC[C@@]1(c2cccc(-c3ccnc(C)c3)c2)C2=C(CC(C)(C)CC2=O)Nc2n[nH]cc21
IC50 [1, 7]: 100 to 1000 nM
IC50 [1, 8]: < 100 nM
IC50 [2, 9]: > 5000 nM
IC50 [2, 10]: 100 to 1000 nM

CC[C@]1(c2cccc(-c3cc(C)nnc3C)c2)C2=C(CC(C)(C)NC2=O)Nc2n[nH]c(C(F)(F)F)c21
IC50 [1, 7]: < 100 nM
IC50 [1, 3]: < 100 nM
IC50 [2, 9]: < 100 nM
IC50 [2, 4]: < 100 nM

CC[C@@]1(c2cc(-c3ccnc(C)c3)ccc2F)C2=C(CC(C)(C)CC2=O)Nc2n[nH]cc21
IC50 [1, 3]: < 100 nM
IC50 [2, 4]: 100 to 1000 nM

CCC1(c2cccc(-c3cncn3C)c2)C2=C(CC(C)(C)NC2=O)Nc2n[nH]cc21 (single isomer, unassigned)
IC50 [1, 11]: < 100 nM
IC50 [2, 12]: < 100 nM

CC[C@@]1(c2cccc(C(F)(F)F)c2)C2=C(Nc3n[nH]cc31)[C@@H](C)CN(C)C2=O
IC50 [1, 11]: < 100 nM
IC50 [2, 12]: < 100 nM

CC[C@@]1(c2cccc(-c3ccncc3F)c2)C2=C(CC(C)(C)CC2=O)Nc2n[nH]c(C(F)(F)F)c21
IC50 [1, 5]: < 100 nM
IC50 [2, 6]: 100 to 1000 nM

CCC1(c2cccc(N3CC4CCC3C4)c2)C2=C(CC(C)(C)CC2=O)Nc2n[nH]cc21 (stereo not shown)
IC50 [1, 3]: < 100 nM
IC50 [2, 4]: 100 to 1000 nM

CCC1(c2cccc(COC)c2)C2=C(CC(C)(C)CC2=O)Nc2n[nH]cc21 (stereo not shown)
IC50 [1, 8]: < 100 nM
IC50 [2, 10]: 100 to 1000 nM

CC[C@@]1(c2cccc(C(F)(F)F)c2)C2=C(C[C@@H](C(C)(C)C)NC2=O)Nc2n[nH]cc21
IC50 [1, 7]: 100 to 1000 nM
IC50 [1, 11]: < 100 nM
IC50 [2, 9]: 1000 to 5000 nM
IC50 [2, 12]: 100 to 1000 nM

CC[C@]1(c2cccc(-c3ccncc3)c2)C2=C(CC(C)(C)CC2=O)Nc2n[nH]c(C)c21
IC50 [1, 3]: 100 to 1000 nM
IC50 [2, 4]: 1000 to 5000 nM

CC[C@]1(c2cccc(N(C)c3cccc(C(F)(F)F)n3)c2)C2=C(CC(C)(C)CC2=O)Nc2n[nH]cc21
IC50 [1, 3]: < 100 nM
IC50 [2, 4]: 100 to 1000 nM

CCC1(c2cccc(O)c2)C2=C(CC(C)(C)CC2=O)Nc2n[nH]cc21 (stereo not shown)
IC50 [1, 3]: < 100 nM
IC50 [2, 4]: 100 to 1000 nM

CC(C)(C)Cc1[nH]nc2c1[C@@]1(CCc3ccc(F)cc31)C1=C(CC(C)(C)CC1=O)N2
IC50 [1, 8]: 1000 to 5000 nM
IC50 [2, 10]: 100 to 1000 nM

CC1(C)CC(=O)C2=C(C1)Nc1n[nH]c(CCC(F)(F)F)c1C2(C)c1ccccc1 (stereo not shown) [Compound 856948]
IC50 [1, 8]: 100 to 1000 nM
IC50 [2, 10]: 100 to 1000 nM

CC[C@]1(c2cccc(-c3cnn(C)c3)c2)C2=C(Nc3n[nH]cc31)[C@@H](F)C(C)(C)CC2=O
IC50 [1, 7]: 100 to 1000 nM
IC50 [1, 5]: < 100 nM
IC50 [2, 9]: > 5000 nM
IC50 [2, 6]: 100 to 1000 nM

CC[C@]1(c2cccc(-c3c(C)nnn3C)c2)C2=C(CC(C)(C)CC2=O)Nc2n[nH]cc21
IC50 [1, 5]: 100 to 1000 nM
IC50 [2, 6]: 1000 to 5000 nM

CC(C)(C)Cc1[nH]nc2c1[C@@]1(CCc3cc(F)ccc31)C1=C(CC(C)(C)CC1=O)N2
IC50 [1, 8]: 100 to 1000 nM
IC50 [2, 10]: < 100 nM

CC[C@]1(c2cccc(-c3cnn4cc(F)cc(F)c34)c2)C2=C(CC(C)(C)NC2=O)Nc2n[nH]cc21
IC50 [1, 3]: < 100 nM
IC50 [2, 4]: 100 to 1000 nM

CC[C@]1(c2cccc(C(F)(F)F)c2)C2=C(Nc3n[nH]cc31)C(C)(C)NC2=O
IC50 [1, 5]: > 5000 nM
IC50 [2, 6]: > 5000 nM

CC[C@]1(c2cccc(S(C)(=O)=O)c2)C2=C(CC(C)(C)NC2=O)Nc2n[nH]c(C(F)(F)F)c21
IC50 [1, 7]: < 100 nM
IC50 [1, 8]: < 100 nM
IC50 [2, 9]: < 100 nM
IC50 [2, 10]: < 100 nM

CC1(C)CC(=O)C2=C(C1)Nc1n[nH]c(C(F)(F)F)c1[C@]21CCc2c(F)cccc21
IC50 [1, 8]: < 100 nM
IC50 [2, 10]: < 100 nM

CC[C@]1(c2cccc(N(C)c3ccccn3)c2)C2=C(CC(C)(C)CC2=O)Nc2n[nH]cc21
IC50 [1, 8]: < 100 nM
IC50 [2, 10]: < 100 nM

CC[C@]1(c2cccc(-c3ncnn3C)c2)C2=C(CC(C)(C)CC2=O)Nc2n[nH]cc21
IC50 [1, 7]: > 5000 nM
IC50 [1, 5]: 1000 to 5000 nM
IC50 [2, 9]: > 5000 nM
IC50 [2, 6]: > 5000 nM
